Laboratory results as given in PubChem BioAssay AID2825 (Sanford-Burnham Center for Chemical Genomics, 2010).
This is a selection; strong and weak results do not stand in their true shares. Calls of active or inactive are those of the source.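 How the source made its calls: active means inhibition of 50% or more; inactive means inhibition below 50%.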

assay: blockers of yeast NLRP3/ASC/caspase-1 reporter – luminescence, uHTS, primary screen (AID 2825); details: Yeast reconstituted NLRP3/ASC/caspase-1, beta-gal luminescence, 24 h; at 10 µM; hits give high values;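 further: plate controls were induced DMSO wells for no effect and uninduced yeast grown without galactose for full effect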

Structure (SMILES)	inhibition
CCC(=O)N(c1ccccc1)C1(COC)CCN(CCc2cccs2)CC1	inactive: 9.29%
CCC(=O)N(c1ccccc1)C1(COC)CCN(CCn2nnn(CC)c2=O)CC1	inactive: 5.62%
